Measured values reported in PubChem BioAssay AID620 (Sanford-Burnham Center for Chemical Genomics, 2007).
The list shows a part of the results, in another mix than the full data. Active and inactive are the calls of the source. No stated cut-off is given here; in the data, active means cytotoxicity above about 50%; inactive means the rest.

Test: cytotoxicity in HT1080 fibrosarcoma cells, cell-based, fluorescence readout (AID 620);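 further: cells exposed to compound overnight then 4 h with Alamar Blue; 0% = vehicle DMSO and 100% = killing control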
Conditions: HT1080 viability, at 10 µM, active compounds read high
For `Cc1nc2ccc3ccccc3c2o1.O=[N+]([O-])c1cc([N+](=O)[O-])c(O)c([N+](=O)[O-])c1`, the cytotoxicity was inactive: -6.1%.
For `COc1ccccc1OP(C)(=O)Nc1ccc(C)c(C)c1` (configuration not stated), the cytotoxicity was inactive: -2.7%.
With `Cc1c(NP(C)(=O)Oc2ccc(C(C)C)cc2)c(=O)n(-c2ccccc2)n1C` (configuration not stated) the cytotoxicity was inactive: -2%.
With `CCc1ccc(OP(C)(=O)O)cc1` the cytotoxicity was inactive: 10.8%.
For `CP(=O)(Nc1ccccn1)Oc1ccccc1` (configuration not stated), the cytotoxicity was inactive: 14.6%.
With `COc1ccccc1OP(C)(=O)Nc1ccc(C)cc1C` (configuration not stated) the cytotoxicity was inactive: -5.3%.
In the case of `CN(C)CCOC(=O)C(O)(c1ccccc1)C1CCCC1` (configuration not stated), the cytotoxicity was inactive: 0.2%.
In the case of `COc1ccc(OP(C)(=O)Nc2ccccn2)cc1` (configuration not stated), the cytotoxicity was inactive: 10.5%.
With `CP(=O)(Nc1ccc(Cl)cc1)Oc1ccc(F)cc1` (configuration not stated) the cytotoxicity was inactive: 10.4%.
With `CC(C)(C)c1ccc(OP(C)(=O)O)cc1` the cytotoxicity was inactive: 10.7%.
With `CCN(CC)CC(O)COC(=O)C(O)(c1ccccc1)C1CCCCC1` (configuration not stated) the cytotoxicity was inactive: 0.8%.
With `CP(=O)(Oc1ccccc1)N1CCOC1=O` (configuration not stated) the cytotoxicity was inactive: 0.4%.
In the case of `COc1ccccc1OP(C)(=O)Nc1c(C)n(C)n(-c2ccccc2)c1=O` (configuration not stated), the cytotoxicity was inactive: 22.3%.
In the case of `CP(=O)(OC12CC3CC(CC(C3)C1)C2)OC12CC3CC(CC(C3)C1)C2`, the cytotoxicity was inactive: -46.9%.
With `CN(C)CCOC(=O)C(O)(c1ccccc1)C1CCCCC1` (configuration not stated) the cytotoxicity was inactive: 0.9%.
In the case of `CP(=O)(Nc1ccc2c(c1)OCCO2)Oc1ccccc1` (configuration not stated), the cytotoxicity was inactive: -2.3%.
With `Cc1ccccc1NP(C)(=O)Nc1ccccc1C` the cytotoxicity was inactive: 11.1%.
In the case of `CCOP(C)(=S)SCC(=O)NC(C)(CC)C(=O)O` (configuration not stated), the cytotoxicity was inactive: 5.8%.
In the case of `CP(=O)(Nc1ccccc1F)Oc1ccccc1` (configuration not stated), the cytotoxicity was inactive: 2.7%.
In the case of `CCN(CC)CCCOC(=O)C(O)(c1ccccc1)C1CCCCC1` (configuration not stated), the cytotoxicity was inactive: -11.1%.
With `CP(=O)(Nc1ccccc1)Oc1ccc(F)cc1` (configuration not stated) the cytotoxicity was inactive: 16.4%.
With `Cc1cc(C)cc(OP(C)(=O)Nc2ccccn2)c1` (configuration not stated) the cytotoxicity was inactive: -1.4%.
With `Cc1ccc(C)c(NP(C)(=O)Oc2ccccc2)c1` (configuration not stated) the cytotoxicity was inactive: 15.8%.
With `Cc1nc2ccc3ccccc3c2s1.O=[N+]([O-])c1cc([N+](=O)[O-])c(O)c([N+](=O)[O-])c1` the cytotoxicity was inactive: 5.9%.
For `COc1ccccc1OP(C)(=O)Nc1c(C)cccc1C` (configuration not stated), the cytotoxicity was inactive: 22.6%.
For `CP(=S)(Nn1cnnc1)Oc1ccccc1` (configuration not stated), the cytotoxicity was inactive: 5.9%.
For `CCOP(C)(=S)SCC(=O)NC(C)C(=O)O` (configuration not stated), the cytotoxicity was inactive: -19%.
In the case of `CP(=O)(Nc1ccccn1)Oc1ccc(Cl)cc1` (configuration not stated), the cytotoxicity was inactive: -9.7%.
With `CP(=O)(NC(=O)Nc1ccccc1)Oc1ccccc1` (configuration not stated) the cytotoxicity was inactive: -2.8%.
With `COc1ccccc1OP(C)(=O)Nc1ccc(C)cc1` (configuration not stated) the cytotoxicity was inactive: -5.9%.
For `Cc1ccc(NP(C)(=O)Oc2ccccc2)c(C)c1` (configuration not stated), the cytotoxicity was inactive: -2.3%.
For `COc1ccc(OP(C)(=O)Nc2cccc(F)c2)cc1` (configuration not stated), the cytotoxicity was inactive: -12.6%.
